Protein sequences, listed by entry. Tags and fused reporters are not part of them.
UniProt P50406, whole entry: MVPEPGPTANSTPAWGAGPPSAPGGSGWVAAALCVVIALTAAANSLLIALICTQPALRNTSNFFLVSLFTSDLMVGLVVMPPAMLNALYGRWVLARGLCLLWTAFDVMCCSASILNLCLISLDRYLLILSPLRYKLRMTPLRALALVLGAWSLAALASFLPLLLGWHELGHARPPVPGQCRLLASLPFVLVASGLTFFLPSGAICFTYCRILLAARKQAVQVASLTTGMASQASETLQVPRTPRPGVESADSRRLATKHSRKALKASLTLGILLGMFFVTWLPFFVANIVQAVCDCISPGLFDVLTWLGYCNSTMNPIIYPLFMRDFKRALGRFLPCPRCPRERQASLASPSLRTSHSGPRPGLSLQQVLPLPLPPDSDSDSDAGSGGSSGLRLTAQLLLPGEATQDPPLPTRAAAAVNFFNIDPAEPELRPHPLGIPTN

Each compound was assayed against human cloned 5-HT6 receptors (Homo sapiens, UniProt P50406) (assay: 5-HT6 binding affinity, [3H]-LSD displacement). Settings: read-out: 5-HT6 Binding Ki; membranes of Hela cells expressing human cloned 5-HT6 receptors; [3H]-LSD 3.0 nM; 120 min, room temperature.
`CN(C)CCc1cn(S(=O)(=O)c2ccc3ccccc3c2)c2ccsc12` was tested, and the Ki was 3.9 nM. Compound `CN(C)CCc1cn(S(=O)(=O)c2cccc(Cl)c2)c2ccsc12` has a Ki of 1.3 nM. In the case of `CN(C)CCc1cn(S(=O)(=O)c2ccccc2Cl)c2ccsc12`, the Ki is reported as 1.9 nM. Work on `CN(C)CCc1cn(S(=O)(=O)c2cnc3sccn23)c2ccsc12` yielded a Ki of 0.3 nM. With `CN(C)CCc1cn(S(=O)(=O)c2ccc(Cl)s2)c2ccsc12` the Ki was 1.6 nM.

Source: patent US7220756B2, “N-sulfonylheterocyclopyrrolyl-alkylamine compounds as 5-hydroxytryptamine-6 ligands” (Wyeth, priority 2003, dated 2007)
